From US12492170B2, “Tetrahydro-1H-benzazepine compound as potassium channel modulator, preparation method and use thereof” (Shanghai Zhimeng Biopharma Inc., priority 2019, dated 2025)

Test system: SD rats
Assay: Safety research: single tail vein injection toxicity, maximum tolerated dose
Type: in vivo
Conditions: male SD rats; for toxicity: dose of 1 mg/kg
Protocol: Male Sprague-Dawley (SD) rats (SPF grade) were selected, divided into groups (3 rats per group), and administered via tail vein injection. Single administration, observed for 48 hours after administration. During the experiment, two cage-side observations and two detailed clinical observations were performed every day (observation was carried out before and 2 hours after the administration on the day of administration). Toxicity study animals were weighed and recorded every day, and food consumption of each animal for 24±1 hours was measured and recorded every day. At the end of the experiment (D3), euthanasia was performed by carbon dioxide inhalation anesthesia and the death of the animal was ensured by abdominal aorta/venous bleeding, and gross anatomy was performed and recorded.

SMILES	Detailed clinical observation (0.3 mg/kg)	Detailed clinical observation (1 mg/kg)	toxicity
Cc1cc2c(c(C)c1NC(=O)CCC1CCCC1)CCCCN2Cc1ccc(F)cc1 [Compound A2, 3-cyclopentyl-N-(1-(4-fluorobenzyl)-6,8-dimethyl-2,3,4,5-tetrahydro-1H-benzazepine-7-yl)propionamide]	No obvious abnormalities	No obvious abnormalities	–
Cc1cc2c(c(C)c1NC(=O)CC(C)(C)C)CCCCN2Cc1ccc(F)s1 [Compound A7, N-(1-((5-fluorothiophene-2-yl)methyl)-6,8-dimethyl-2,3,4,5-tetrahydro-1H-benzazepine-7-yl)-3,3-dimethylbutamide]	No obvious abnormalities	–	transient slight toxicity
Cc1cc2c(c(C)c1NC(=O)CC(C)(C)C)CCCCN2Cc1ccc(F)cc1 [Compound A1, N-(1-(4-fluorobenzyl)-6,8-dimethyl-2,3,4,5-tetrahydro-1H-benzazepine-7-yl)-3,3-dimethylbutanamide]	No obvious abnormalities	–	transient slight toxicity
Cc1cc2c(c(C)c1NC(=O)CC(C)(C)C)CCCCN2Cc1ccc(Cl)s1 [Compound A6, N-(1-((5-chlorothiophene-2-yl)methyl)-6,8-dimethyl-2,3,4,5-tetrahydro-1H-benzazepine-7-yl)-3,3-dimethylbutamide]	No obvious abnormalities	No obvious abnormalities	–
Cc1cc2c(c(C)c1NC(=O)CCC1CCCC1)CCCCN2Cc1ccc(F)s1 [Compound A8, 3-cyclopentyl-N-(1-((5-fluorothiophene-2-yl)methyl)-6,8-dimethyl-2,3,4,5-tetrahydro-1H-benzazepine-7-yl)propionamide]	No obvious abnormalities	No obvious abnormalities	–
